The assay deals with JNK1 (Homo sapiens, UniProt P45983). The experiment in a line: JNK1 biochemical assays (one or more of: time resolved fluorescence, Z'-LYTE Cascade, radioactive). The conditions noted are these: read-out: Act. Level; Table 2; JNK1 IC50 activity level.

Sequences of proteins named here, by UniProt entry; tags and fusion partners are left off.
UniProt P45983, whole entry: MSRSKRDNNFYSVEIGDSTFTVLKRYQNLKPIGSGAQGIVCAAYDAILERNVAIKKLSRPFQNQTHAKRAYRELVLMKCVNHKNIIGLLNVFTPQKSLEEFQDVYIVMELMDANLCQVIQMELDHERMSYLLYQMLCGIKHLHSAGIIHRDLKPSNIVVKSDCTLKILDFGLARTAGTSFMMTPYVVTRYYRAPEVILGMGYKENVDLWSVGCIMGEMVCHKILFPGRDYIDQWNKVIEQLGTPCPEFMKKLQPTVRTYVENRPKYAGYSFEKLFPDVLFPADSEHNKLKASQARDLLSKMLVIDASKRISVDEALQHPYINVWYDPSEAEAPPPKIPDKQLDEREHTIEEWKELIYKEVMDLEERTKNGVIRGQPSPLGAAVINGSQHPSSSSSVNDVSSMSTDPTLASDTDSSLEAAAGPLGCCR

Some results are limits rather than exact numbers.

IC50 data for two compounds are collected here from US12129237B2, “Substituted diaminocarboxamide and diaminocarbonitrile pyrimidines, compositions thereof, and methods of treatment therewith” (SIGNAL PHARMACEUTICALS, LLC, priority 2011, dated 2024).

On to `NC(=O)c1cnc(Nc2cccc3c2CCCC3)nc1Nc1ccccc1`, for which the IC50 was in the range of 200 to 800 nM.

Regarding `CC1(C)CCC(Nc2ncc(C(N)=O)c(N[C@@H]3CCC[C@H](O)C3)n2)c2ccccc21` (stereo partly drawn) [Example B-99, 2-(4,4-dimethyl-1,2,3,4-tetrahydronaphthalen-1-ylamino)-4-((1R,3S)-3-hydroxycyclohexylamino)pyrimidine-5-carboxamide], the IC50 is less than 200 nM.
